# Compounds with a hit are over-represented: about 13% of the library has one in this group of screens.
# miR-21 reporter: raises the signal of a miR-21 reporter | HeLa miR-21 FLuc reporter, luciferase, 48 h | Potency, µM (highest dose often 38.3 µM), for inactives: at the highest dose reporter change, positive = more light | 340,000 tested, under 10 active | AID 2288; active = well fitted rising curve with a large enough effect; inconclusive = small, poorly fitted or top-dose-only effect; inactive = no such curve, though single readings can be large or run the other way;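 also: % of control where 0% means no effect; miR-21 action dims this reporter so a rising signal means less miR-21 action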
#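 HeLa miR-21-FLuc reporter line, endogenous miR-21; 2000 cells/well in DMEM/10% FBS; compound titration up to ~40uM final, 48 h, 37 degree Celsius; luciferase detection reagent, 15 min lysis, CCD luminescence.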
# ALDH1A1 block: blocks purified human ALDH1A1 activity; P00352; Purified ALDH1A1, NADH fluorescence, propionaldehyde substrate; Potency, µM (series often up to 75.3 µM), for the others: top-dose activity, negative = inhibition, usual class: inhibitors; 220,000 compounds, 7.3% hits; active = well fitted inhibition curve with a large enough effect, not every such curve was filed as active; inconclusive = small, poorly fitted or top-dose-only effect, or another doubt; inactive = no such curve, though single readings can be large or run the other way;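 note: potency is the fitted concentration of half-maximal effect; plate controls were no enzyme wells and a reference inhibitor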
# JMJD2E inh: blocks human JMJD2E demethylase activity; B2RXH2; JMJD2E catalytic domain, FDH-coupled NADH fluorescence (FDH is formaldehyde dehydrogenase); Potency, µM (top dose mostly 57.1 µM), without a hit: at the highest dose activity change, negative = inhibition, actives largely listed as inhibitors; 230,000 compounds, 1.6% hits; AID 2147; active = well fitted inhibition curve with a large enough effect, not every such curve was filed as active; inconclusive = small, poorly fitted or top-dose-only effect, or another doubt; inactive = no such curve, though single readings can be large or run the other way;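 note: potency is the fitted concentration of half-maximal effect; 0% = wells with enzyme and -100% = buffer wells without enzyme; nearly all actives have a fitted effect of over 50% in size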
# Sfp inh: qHTS Assay for Inhibitors of Bacillus subtilis Sfp phosphopantetheinyl transferase (PPTase). 4'-phosphopantetheinyl transferase ffp (Bacillus subtilis), Q9F4F7. Biochemical Sfp PPTase activity, qHTS. Potency, µM, inactives show max response, negative = inhibition, usual class: inhibitors. hit rate 3.5% among 310,000; active means well fitted inhibition curve with a large enough effect; inconclusive means small, poorly fitted or top-dose-only effect, or another doubt; inactive means no such curve, though single readings can be large or run the other way;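 further: the enzyme is Sfp with the accession as filed and its product quenches rhodamine fluorescence; potency means the concentration at half of the fitted maximal effect; 0% = enzyme reaction without inhibitor and -100% = no enzyme wells; top concentration of the series not given in the record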
#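 Step 1, compound plus 15 nM Sfp-PPTase, 15 min, room temperature. Step 2, add rhodamine-CoA (5 uM) and BHQ-2-YbbR (12.5 uM). Step 3, read 525/598 nm fluorescence at 0 and 30 min.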
# LMNA splice mod: LMNA splicing modulation; 200,000 compounds, 0.01% hits; Potency, µM (doses to about 46.1 µM), for inactives: top-dose ratio change, negative = inhibition, hits mostly inhibitors; HeLa LMNA splicing GFP/RFP minigene ratio, 48 h; active = well fitted inhibition curve with a large enough effect in the signal ratio, with a control signal flat, not every such curve was filed as active; inconclusive = small, poorly fitted or top-dose-only effect, or effect the other way, or a change in a side signal; the % refers to the signal ratio; note: potency is the fitted concentration of half-maximal effect; % is set by controls: 0 for no effect and ±100 for the full control effect
#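 S3 HeLa cells stably expressing lamin A-EGFP splicing minigene plus DsRed2, 600 cells/well, 48 h compound exposure at 37C. Laser-scanning cytometry; analysed as GFP (500-530 nm)/RFP (575-640 nm) total intensity ratio; 0.5% DMSO vehicle.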
# G9a block: G9a (human) methyltransferase inhibition | Q96KQ7 | G9a H3K9 monomethylation, AlphaScreen, 2 h | Potency, µM (series often up to 102 µM), for the others: top-dose activity, negative = inhibition, hits mostly inhibitors | 350,000 compounds, 8.8% hits; note: potency is the fitted concentration of half-maximal effect; % is set by controls: 0 for no effect and ±100 for the full control effect; nearly all actives have a fitted effect of over 75% in size
#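 G9a (20 nM) was preincubated 15 min with compound, then reacted 2 h at room temperature with 500 nM biotin-H3K9 peptide and 20 µM SAM. Monomethyl-H3K9 detected by AlphaScreen using anti-H3K9me1 antibody.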
# An asterisk follows results filed as active; ? = inconclusive; . = not tested or not shown; [ ] = remark or other dose. Unless noted, calls come from the whole dose curve; as a rule, active = well fitted curve in the direction sought with a large enough effect; inconclusive = small, poorly fitted or top-dose-only effect, or another doubt; inactive = no such curve, though single readings can be large; an effect the other way counts as inactive or inconclusive.
# A first look, 2 compounds:
SMILES,miR-21 reporter,ALDH1A1 block,JMJD2E inh,Sfp inh,LMNA splice mod,G9a block
O=C(NCc1ccccc1Cl)C1CCC(CNS(=O)(=O)c2ccc(Br)s2)CC1 (stereo unspecified),-0.7%,.,.,.,.,-13.3%[59 µM]
COc1cccc(CNC(=O)C2CCC(CNS(=O)(=O)c3cccc4nsnc34)CC2)c1 (stereo unspecified),2.8%,20µM*,6.2%,21.2%,1.6%,?

# Results, from the start:
SMILES,miR-21 reporter,ALDH1A1 block,JMJD2E inh,Sfp inh,LMNA splice mod,G9a block
O=C(NCc1ccccc1Cl)C1CCC(CNS(=O)(=O)c2ccc(Br)s2)CC1 (stereo unspecified),-0.7%,.,.,.,.,-13.3%[59 µM]
COc1cccc(CNC(=O)C2CCC(CNS(=O)(=O)c3cccc4nsnc34)CC2)c1 (stereo unspecified),2.8%,20µM*,6.2%,21.2%,1.6%,?
O=C(NCc1cccs1)C1CCC(CNS(=O)(=O)c2ccc(Br)s2)CC1 (stereo unspecified),2.8%,2.82µM*,3.5%,14.1%,2.4%,-11.0%
O=C(NCc1cccs1)C1CCC(CNS(=O)(=O)c2cccc3nsnc23)CC1 (stereo unspecified),0.0%,22.4µM*,-1.4%,-11.8%,6.1%,-5.4%
COc1ccc(OCC(=O)Nc2ccccc2C(=O)OCc2cc(=O)n3nc(C)sc3n2)cc1,-0.5%,.,.,.,6.7%[46 µM],21.0%[59 µM]
COc1ccc(-c2nn(-c3ccccc3)cc2/C=C2/SC(=S)N(Cc3ccco3)C2=O)c(C)c1,-2.9%,-9.1%,0.6%,-8.5%,17.5%,-46.1%
Cc1cc(/C=C2\SC(=Nc3ccccc3)NC2=O)c(C)n1-c1ccc(S(N)(=O)=O)cc1,23.0%,28.2µM*,?,-8.1%,?,.
O=C1NC(=Nc2ccccc2)S/C1=C/c1cccs1,-31.7%,4.9%,10.0%,6.3%,0.3%[9.22 µM],?
COc1ccc(-n2c(C)cc(/C=C3\SC(=O)NC3=O)c2C)cc1,-74.2%,.,.,?,.,22.4µM*
COc1ccc(-n2c(C)cc(/C=C3\SC(=S)N(Cc4ccco4)C3=O)c2C)cc1,-12.5%,0.631µM*,-1.3%,-4.0%,-7.5%,25.1µM*
Cc1ccc(-n2c(C)cc(/C=C3\SC(=O)NC3=O)c2C)cc1,-64.2%,.,.,-6.6%,.,13.4%
O=C(Nc1c(Cl)cccc1Cl)c1cc(-c2cccc(O)c2)on1,-8.3%,.,.,.,.,-10.0%[59 µM]
COc1ccc(N=NC2=C(O)CC(C)(C)CC2=O)cc1,-31.6%,0.891µM*,1.1%,5.5%,?,.
COc1ccc(N=NC2=C(O)CC(C)(C)CC2=O)c(OC)c1,-55.3%,0.282µM*,-8.9%,10.2%,-3.6%,28.2µM*
CC1(C)CC(=O)C(N=Nc2cccc(F)c2C#N)=C(O)C1,-6.5%,.,-1.9%,-8.1%,.,.

# A few values from the list.
# In ALDH1A1 block, O=C(NCc1cccs1)C1CCC(CNS(=O)(=O)c2cccc3nsnc23)CC1 (stereo unspecified) is listed with 22.4µM*
# In JMJD2E inh, CC1(C)CC(=O)C(N=Nc2cccc(F)c2C#N)=C(O)C1 is listed with -1.9%
# In miR-21 reporter, O=C(NCc1ccccc1Cl)C1CCC(CNS(=O)(=O)c2ccc(Br)s2)CC1 (stereo unspecified) is listed with -0.7%
# In Sfp inh, Cc1ccc(-n2c(C)cc(/C=C3\SC(=O)NC3=O)c2C)cc1 is listed with -6.6%
# In G9a block, COc1ccc(-n2c(C)cc(/C=C3\SC(=S)N(Cc4ccco4)C3=O)c2C)cc1 is listed with 25.1µM*

# More entries.
SMILES,miR-21 reporter,ALDH1A1 block,JMJD2E inh,Sfp inh,LMNA splice mod,G9a block
COCCn1c(=O)c(-c2ccc(F)cc2)nc2cnc(Nc3cccc(OC)c3)nc21,.,13.9%,.,8.7%,?,6.6%[0.501 µM]
CCCN(CCC)CCNC(=O)CN1C(=O)COc2ccc(S(=O)(=O)N3CCC(C)CC3)cc21,-4.7%,.,.,.,.,?
CC(=O)c1c(C)[nH]c(-c2ccccc2)nc1=S,1.0%,0.1%,-7.1%,-21.0%,.,3.55µM*
N#CC(CC(=O)c1ccc(F)cc1)c1ccc2c(c1)OCO2 (stereo unspecified),-10.3%,.,.,7.1%,.,12.9%[2.33 µM]
OCCC1CN(Cc2ccc3nonc3c2)CCN1Cc1ccsc1 (stereo unspecified),-2.9%,18.9µM*,5.1%,9.4%,.,7.4%
OCCC1CN(Cc2ccc3cc(Cl)ccc3n2)CCN1Cc1ccsc1 (stereo unspecified),-0.1%,?,0.1%,2.2%,.,?
COc1ccc(NS(=O)(=O)c2ccc3nc(COc4ccc(Cl)c(C)c4)[nH]c3c2)cc1,13.8%,-12.9%,0.2%,36.2%,?,44.7µM*
COc1ccc(NS(=O)(=O)c2ccc3nc(-c4ccccc4)[nH]c3c2)cc1,19.2%,.,.,.,.,9.4%[59 µM]
COC(=O)c1ccc(N=Nc2ccccc2)cc1,-34.5%,6.1%,12.0%,10.8%,4.9%[46 µM],39.8µM*
COC(=O)c1ccc(NC(=O)CNc2ccccc2)cc1,-24.0%,22.4µM*,3.7%,4.4%,?,-1.6%
COC(=O)CCC(=O)Nc1ccc(N=Nc2ccccc2)cc1,-16.5%,?,-5.6%,-40.3%,26.3%[46 µM],10µM*
O=C(O)CCCC(=O)Nc1ccc(N=Nc2ccccc2)cc1,0.3%,2.3%,-0.1%,2.9%,.,-29.1%
Oc1ccc(Cl)cc1N=Nc1ccccc1,-10.7%,.,.,16.5%,.,22.4µM*
O=C(O)c1cc(O)ccc1N=Nc1ccccc1,3.9%,.,-9.5%,11.2%,.,5.5%[12.7 µM]
